Data reported in ChEMBL document CHEMBL4304749, “Covalent Inhibitors of Protein-Protein Interactions Targeting Lysine, Tyrosine, or Histidine Residues” (J Med Chem, 2019).

Amino acid sequences for entries named in this document (tags omitted).
UniProt P98170, whole entry: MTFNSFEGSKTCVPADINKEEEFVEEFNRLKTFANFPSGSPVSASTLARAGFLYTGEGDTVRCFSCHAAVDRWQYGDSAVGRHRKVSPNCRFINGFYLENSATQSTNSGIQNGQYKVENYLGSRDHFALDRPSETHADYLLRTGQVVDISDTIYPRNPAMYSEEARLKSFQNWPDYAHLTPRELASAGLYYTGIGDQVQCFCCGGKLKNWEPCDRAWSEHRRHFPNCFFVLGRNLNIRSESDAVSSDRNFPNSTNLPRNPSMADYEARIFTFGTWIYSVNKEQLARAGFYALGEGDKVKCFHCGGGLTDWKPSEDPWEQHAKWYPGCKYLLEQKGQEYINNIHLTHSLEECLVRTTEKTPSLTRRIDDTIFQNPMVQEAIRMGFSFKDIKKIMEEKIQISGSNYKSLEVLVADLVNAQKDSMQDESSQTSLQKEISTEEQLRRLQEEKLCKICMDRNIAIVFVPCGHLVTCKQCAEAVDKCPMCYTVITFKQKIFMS

Experiments:
[1] = molecular target: T1, E3 ubiquitin-protein ligase XIAP (Homo sapiens, UniProt P98170)
[2] = molecular target: T1, E3 ubiquitin-protein ligase XIAP; remark: listed apart in the source
[3] = molecular target: T1, E3 ubiquitin-protein ligase XIAP; remark: listed apart in the source

Structure (SMILES): CC(C)[C@H](NC(=O)[C@H](C)N)C(=O)N1CCC[C@H]1C(=O)N[C@@H](Cc1ccccc1)C(=O)O
- IC50 [1]: 64 nM
- IC50 [2]: 56 nM
- IC50 [3]: 108 nM
